Data taken from PubChem BioAssay (NCI).
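Interpolation was linear, between the two tested concentrations surrounding the appropriate level; five concentrations were tested over 48 hours in 96-well plates. TGI denotes the concentration required for complete inhibition of growth.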

Key:
Test in all cases: NCI anticancer screen, dose series, 48 h
[1] = test system: 786-0 renal
[2] = test system: A498 renal
[3] = test system: A549 NSCLC
[4] = test system: ACHN renal
[5] = test system: BT-549 breast
[6] = test system: CCRF-CEM leukemia
[7] = test system: EKVX NSCLC
[8] = test system: HCC-2998 colon
[9] = test system: HCT-116 colon
[10] = test system: HL-60(TB) leukemia
[11] = test system: HS 578T breast
[12] = test system: HT29 colon
[13] = test system: K-562 leukemia
[14] = test system: KM12 colon
[15] = test system: M14 melanoma
[16] = test system: MALME-3M melanoma
[17] = test system: MCF7 breast
[18] = test system: MDA-MB-231 breast
[19] = test system: MDA-N
[20] = test system: MOLT-4 leukemia
[21] = test system: NCI-H23 lung
[22] = test system: NCI-H322M lung
[23] = test system: NCI-H460 lung
[24] = test system: NCI/ADR-RES ovarian
[25] = test system: OVCAR-5 ovarian
[26] = test system: PC-3 prostate
[27] = test system: RPMI-8226 leukemia
[28] = test system: RXF 393 renal
[29] = test system: SF-268 CNS
[30] = test system: SK-MEL-2 melanoma
[31] = test system: SK-MEL-28 melanoma
[32] = test system: SN12C renal
[33] = test system: SNB-19 CNS
[34] = test system: SR leukemia
[35] = test system: SW-620 colon
[36] = test system: T-47D breast
[37] = test system: TK-10 renal
[38] = test system: U251 CNS
[39] = test system: UACC-257 melanoma
[40] = test system: UACC-62 melanoma
[41] = test system: UO-31 renal

Measured: TGI

CN(C(=O)Cc1ccc(Cl)cc1Cl)[C@@H]1CCCC[C@@H]1N1CCCC1
39.3 µM: [15]
> 100 µM: [1] | [3] | [4] | [5] | [6] | [7] | [8] | [9] | [10] | [11] | [12] | [13] | [14] | [16] | [17] | [18] | [19] | [21] | [22] | [23] | [24] | [25] | [26] | [27] | [28] | [29] | [30] | [31] | [32] | [33] | [34] | [35] | [36] | [37] | [38] | [39] | [40] | [41]
99.9 µM: [2]
78 µM: [20]
